OPERA 2.9 data: melting point values

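The numbers are reported measurements, compiled and curated for the OPERA QSAR suite. A listed value is a point estimate from one report or more. How each value was measured is not recorded, so precision varies. The measured form (salt, isomer or mixture) is not always the one drawn. Unmarked limits or estimates from the upstream databases cannot be ruled out.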

Melting points are in °C. "via" names the databases from which the curators took the value.

The entry for CNC(=O)Oc1cccc2sccc12 lists MP 128 °C (via PubChem).
The entry for COC(=O)C=Cc1ccc(Cl)cc1 lists MP 75.5 °C (via OCHEM).
The entry for C[C@@H]1C[C@@]2(O[C@H]2C)C(=O)O[C@@H]2CCN3CC=C(COC(=O)[C@]1(C)O)[C@H]23 lists MP 228 °C (via PubChem).
The entry for O=C(OOC(=O)c1ccc(Cl)cc1)c1ccc(Cl)cc1 lists MP 137.5 °C (via PubChem).
The entry for COC1=CC2=CC[C@H]3[C@@H]4[C@@H]5C[C@@H]5C(=O)[C@@]4(C)CC[C@@H]3[C@@]2(C)CC1 lists MP 175 °C (via eChemPortal).
The entry for Brc1ccc(Oc2cc(Br)ccc2Br)c(Br)c1 lists MP 20 °C (via OCHEM).
The entry for Clc1cc(-c2cc(Cl)c(Cl)c(Cl)c2Cl)c(Cl)c(Cl)c1Cl lists MP 156 °C (via QSARDB).
The entry for c1ccc2[nH]c(C3CCCNC3)nc2c1 (configuration not stated) lists MP 190 °C (via OCHEM).
The entry for Cc1cccc(N2CCNCC2)c1C lists MP 149 °C (via OCHEM).
The entry for Clc1ccc(Cl)c(-c2ccccc2Cl)c1 lists MP 44 °C (via QSARDB).
The entry for C#C[C@]1(OC(C)=O)CC[C@H]2[C@@H]3CCC4=CC(=O)CC[C@@H]4[C@H]3CC[C@@]21CC lists MP 204 °C (via eChemPortal).
The entry for CN1CCN(c2ccc(N)nc2)CC1 lists MP 120 °C (via OCHEM).
The entry for COc1ccc(OC)c(CBr)c1 lists MP 78 °C (via OCHEM).
The entry for C=CCC1(C(C)C#CCC)C(=O)N=C([O-])N(C)C1=O.[Na+] (configuration not stated) lists MP 61.94 °C (via PubChem).
The entry for CCc1cccc(C)c1NC(=O)CCl lists MP 105 °C (via OCHEM).
The entry for Cc1nc2ccccc2c(=O)n1-c1ccc(F)cc1 lists MP 135 °C (via OCHEM).
The entry for ClCc1coc(-c2cccs2)n1 lists MP 51 °C (via OCHEM).
The entry for C=CC(=O)OCCC#N lists MP -16.9 °C (via PubChem).
The entry for O=C(CCl)Nc1ccccc1I lists MP 39 °C (via OCHEM).
The entry for COc1ccc(F)c(CBr)c1F lists MP 54.5 °C (via OCHEM).
The entry for CCOC(=O)c1c(C)n(C2CCCCC2)c2ccc(O)cc12 lists MP 248 °C (via OCHEM).
The entry for NC(=O)NC(=O)CCl lists MP 182 °C (via OCHEM).
The entry for CS(=O)(=O)O.CS(=O)(=O)O.NN=C(N)N lists MP 146 °C (via eChemPortal).
The entry for CCOP(=S)(OCC)Oc1ccc2c(C)cc(=O)oc2c1 lists MP 38 °C (via OCHEM).
The entry for CC(=O)O[C@@H]1[C@@H](O)C2OC3C=C(C)C(=O)C(O)[C@@]3(CO)[C@]1(C)[C@]21CO1 (stereo not given in full) lists MP 91.5 °C (via PubChem).
The entry for O=C1NC(=O)C(O)(O)C(=O)N1 lists MP 240 °C (via PubChem).
The entry for CC1=C[C@H]2[C@@]3(O)[C@H](C)[C@@H](O)[C@]4(O)[C@H]([C@@H]3C=C(CO)C[C@]2(O)C1=O)C4(C)C lists MP 250.5 °C (via PubChem).
The entry for CC1(C)C(=O)NC(=O)NC1=O lists MP 278 °C (via OCHEM).
The entry for CC(C)=CCC1(C)C(=O)NC(=O)NC1=O lists MP 193 °C (via OCHEM).
The entry for NCCc1nc2ccccc2[nH]1 lists MP 222 °C (via OCHEM).
The entry for CC(C)C1(C(C)C)C(O)=NC(=O)N=C1O lists MP 228 °C (via OCHEM).
The entry for Nc1nc(N)nc(CCl)n1 lists MP 222 °C (via OCHEM).
The entry for Clc1cc(Cl)c(-c2c(Cl)c(Cl)cc(Cl)c2Cl)cc1Cl lists MP 147 °C (via QSARDB).
The entry for CC(Cl)C(=O)NC(N)=O (configuration not stated) lists MP 160 °C (via OCHEM).
The entry for Cc1ccc(C(=O)CCl)cc1 lists MP 55 °C (via OCHEM).
The entry for N#Cc1cccc(CCl)c1 lists MP 68.5 °C (via OCHEM).
The entry for ClC(Cl)=C(c1ccc(Cl)cc1)c1ccccc1Cl lists MP 80 °C (via QSARDB).
The entry for Cc1cc(NC(=O)CCl)on1 lists MP 107 °C (via OCHEM).

The first 3 entries again:

CNC(=O)Oc1cccc2sccc12 has MP 128 °C (via PubChem).
COC(=O)C=Cc1ccc(Cl)cc1 has MP 75.5 °C (via OCHEM).
C[C@@H]1C[C@@]2(O[C@H]2C)C(=O)O[C@@H]2CCN3CC=C(COC(=O)[C@]1(C)O)[C@H]23 has MP 228 °C (via PubChem).

From the experimental data distributed with OPERA 2.9.